This series can be described thus: Body weight and tolerability, WSU-Luc ibrutinib study (Example 12). In kind it is in vivo, mouse. Particulars: Compound A 60 mg/kg PO QD 21 d; ibrutinib 20 mg/kg PO QD 21 d; alone or combined. On the procedure:
Experimental design: Female CB17 SCID mice (Taconic Biosciences; weight at treatment start was about 18 g) were inoculated subcutaneously in the flank (cell suspension) with 4.0×10^6 WSU-Luc cells. Tumor growth was monitored with vernier calipers. Tumor volume was calculated using the formula V=W^2×L/2, where V=volume, W=width and L=length of the tumor. When the mean tumor volume reached approximately 190 mm^3, the animals were randomized into treatment groups (n=8/group). […] Tumor growth and body weight were measured twice per week. Tumor growth inhibition and body weight change were calculated on Day 20 of treatment.

For `C=CC(=O)N1CCC[C@@H](n2nc(-c3ccc(Oc4ccccc4)cc3)c3c(N)ncnc32)C1` [ibrutinib], the “% BW Change (Day Maximum)” value is reported as 10.4 (20) %.

The values are drawn from US20190231757A1, “COMBINATION OF SPLEEN TYROSINE KINASE INHIBITORS AND OTHER THERAPEUTIC AGENTS” (Takeda Pharmaceutical Company Limited, priority 2016, published 2019).
